Paper PMC7051184, “C9orf72 arginine-rich dipeptide repeat proteins disrupt karyopherin-mediated nuclear import” (eLife, 2020)

What was measured:
BSA = assay: Bead halo assay, biotinylated BSA-coated beads (non-specific control); conditions: AF488-labeled, 200 nM, binding buffer
Method: Purified WT importin β (pKW485) diluted to 10 µM in XB was combined with 10-molar excess of Alexa Fluor 647 NHS ester (ThermoFisher), using freshly-prepared 10 mM dye in anhydrous DMSO. After incubation on ice for 2 hr, the sample was dialyzed in PBS and concentrated on 30kD MWCO filter (Millipore Sigma) before storage. A similar protocol was used to label BSA with 10-molar excess Sulfo-NHS-LC-biotin (ThermoFisher), followed by dialysis in PBS.
(§1) The bead halo assay was carried out as described with minor modifications ([Patel and Rexach, 2008]), using […] polystyrene beads coated with neutravidin (for biotinylated proteins) or glutathione (for GST-fusion proteins) (Spherotech, Lake Forest, IL). Beads were coated overnight at 4°C at saturating concentrations per manufacturers’ instructions and rinsed 2x in binding buffer (20 mM HEPES [pH 7.4], 150 mM KOAc, 2 mM Mg(OAc)2, 1 mM DTT, 0.1% Tween-20). Immediately prior to the assay, fluorescent bait proteins and beads were combined with 4x assay buffer (40 mM EDTA, 40 mg/ml BSA, 500 mM NaCl, and 0.2% Tween) to a total of 40 µL per well, in optical glass-bottom 96-well plates (Cellvis, Mountain View, CA). Reactions were allowed to equilibrate at room temperature for a minimum of 30 min prior to imaging at 100x on an LSM800 confocal microscope (Zeiss, Oberkochen, Germany). […]

[1] = Bead halo assay, bare neutravidin beads (non-specific control); conditions: AF488-labeled, 200 nM, binding buffer
Method: The bead halo assay was carried out as described with minor modifications ([Patel and Rexach, 2008]), using […] polystyrene beads coated with neutravidin (for biotinylated proteins) or glutathione (for GST-fusion proteins) (Spherotech, Lake Forest, IL). Beads were coated overnight at 4°C at saturating concentrations per manufacturers’ instructions and rinsed 2x in binding buffer (20 mM HEPES [pH 7.4], 150 mM KOAc, 2 mM Mg(OAc)2, 1 mM DTT, 0.1% Tween-20). Immediately prior to the assay, fluorescent bait proteins and beads were combined with 4x assay buffer (40 mM EDTA, 40 mg/ml BSA, 500 mM NaCl, and 0.2% Tween) to a total of 40 µL per well, in optical glass-bottom 96-well plates (Cellvis, Mountain View, CA). Reactions were allowed to equilibrate at room temperature for a minimum of 30 min prior to imaging at 100x on an LSM800 confocal microscope (Zeiss, Oberkochen, Germany). Intensity profiles comparing the maximum rim intensity to the background were plotted in ImageJ (NIH) by an investigator blinded to experimental conditions.

Nup100(1-307) = system: Nup100(1-307); set-up: species or system S. cerevisiae; conditions: AF488-labeled, binding buffer
Method: (§2) The expression of GST- Nsp1(497-609) in BL21(DE3) cells grown in LB media was induced at OD600nm = 0.4–0.6, followed by incubation at 37°C for 3–5 hr. The GST-tagged S. cerevisiae pGEX-Nup100(1-307), Nup100(1-610), Nup116(348-458) and Nup116(348-458)F > A were expressed in T7 Shuffle cells (NEB) that were grown in Dynamite media ([Taylor et al., 2017]) until OD600nm = 0.9 before induction with IPTG at 37°C for 3 hr. All the GST-tagged Nup fragments were purified using glutathione-sepharose affinity chromatography, as described for the GST-GFP-NLS above, and dialyzed into PBS before storage.
as §1, with “CA).” for “CA). Reactions were allowed to equilibrate at room temperature for a minimum of 30 min prior to imaging at 100x on an LSM800 confocal microscope (Zeiss, Oberkochen, Germany).”

Nup100(1-610) = system: Nup100(1-610); set-up: species or system S. cerevisiae; conditions: AF488-labeled, binding buffer
Method: as §2
as §1, with “CA).” for “CA). Reactions were allowed to equilibrate at room temperature for a minimum of 30 min prior to imaging at 100x on an LSM800 confocal microscope (Zeiss, Oberkochen, Germany).”

importin β = assay: DPR aggregation assay and western blot, ImpB; type: biochemical, human; conditions: for ImpB band density, Pellet / ImpB band density, Supernatant: 100 µM 10mer in 2.5 mg/ml HEK lysate, normalized to untreated HEK; for ImpB band density, % untr control: Fig 5-suppl 3C, normalized to untreated HEK on same membrane;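 as to ImpB band density, % untr control: RNA rows contain added 20 µg total HEK RNA while no-RNA rows lack it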
Method: (§3) Supernatant and pellet fractions (for all 5 DPRs, and control/buffer only) were prepared as in the nuclear transport assays, by adding 100 µM 10mers to 2.5 mg/ml HEK lysate in 100 µL TRB. Supernatants were boiled in Laemmli (BioRad) for 5 min. Pellets were boiled for 15 min followed by sonication in order to fully disperse aggregates for SDS-PAGE. Equal volumes of supernatant and pellet fractions were run on 4–12% Bolt Bis-Tris Plus gels (ThermoFisher), transferred to nitrocellulose membrane using an iBlot2 dry blotting system (ThermoFisher). Protein loading was analyzed by BLOT-Faststain (G-biosciences, St. Louis, MO), according to the manufacterers’ instructions. For immunodetection, membranes were blocked with 5% non-fat milk in TBST and probed by sequential incubation with the primary antibodies as detailed in the table below. Detection was by HRP-conjugated secondary antibodies/chemiluminescence using an ImageQuant LAS 4000 system (GE, Chicago, IL). To permit sequential probing of membranes without stripping, signals were quenched by incubation with prewarmed 30% H20_2 for 20 min ([Sennepin et al., 2009]). Band intensities were measured by ImageQuant software. For pellet vs. supernatant fractions, all were expressed as percent untreated control. For blots in Figure 1E, samples were run on 4–20% SDS PAGE minigels (ThermoFisher) and blotted to PVDF membranes (Immun-Blot PVDF, Bio-Rad) using the Bio-Rad TransBlot Turbo apparatus, and probed as above. The chemiluminescence signal was captured with a Bio-Rad ChemiDoc XRS+ digital imaging system.

RanGAP1 = assay: DPR aggregation assay and western blot, RanGAP1; type: biochemical, human; conditions: 100 µM 10mer in 2.5 mg/ml HEK lysate, normalized to untreated HEK
Method: as §3

RCC1 = assay: DPR aggregation assay and western blot, RCC1 (negative control); type: biochemical, human; conditions: 100 µM 10mer in 2.5 mg/ml HEK lysate, normalized to untreated HEK
Method: as §3

Nup62 = assay: DPR aggregation assay and western blot, Nup62; type: biochemical, human; conditions: 100 µM 10mer in 2.5 mg/ml HEK lysate, normalized to untreated HEK
Method: as §3

Matrin-3 = assay: DPR aggregation assay and western blot, Matrin-3; type: biochemical, human; conditions: normalized to untreated HEK cells on the same membrane
Method: as §3

DDX3X = assay: DPR aggregation assay and western blot, DDX3X; type: biochemical, human; conditions: normalized to untreated HEK cells on the same membrane
Method: as §3

Rps25 = assay: DPR aggregation assay and western blot, Rps25; type: biochemical, human; conditions: Fig 5-suppl 3C, normalized to untreated HEK on same membrane;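 also: RNA rows contain added 20 µg total HEK RNA while no-RNA rows lack it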
Source text: Supplement elife-51685-fig5-data1.xlsx, sheet "Figure 5-figure suppl 3" | column: Rps25

[2] = Pellet, no RNA (Untreated), blot 1
[3] = Pellet, no RNA (Untreated), blot 2
[4] = Supernatant, no RNA (Untreated), blot 1
[5] = Supernatant, no RNA (Untreated), blot 2

Q: What does the source list for `N=C(N)NCCC[C@H](NC(=O)CNC(=O)[C@H](CCCNC(=N)N)NC(=O)CNC(=O)[C@H](CCCNC(=N)N)NC(=O)CNC(=O)[C@H](CCCNC(=N)N)NC(=O)CNC(=O)[C@H](CCCNC(=N)N)NC(=O)CNC(=O)[C@H](CCCNC(=N)N)NC(=O)CNC(=O)[C@H](CCCNC(=N)N)NC(=O)CNC(=O)[C@H](CCCNC(=N)N)NC(=O)CNC(=O)[C@H](CCCNC(=N)N)NC(=O)CNC(=O)[C@H](CCCNC(=N)N)NC(=O)CN)C(=O)O` [GR10]?
A: Binding to BSA-coated beads (BSA): modest non-specific binding; Binding to bare beads [1]: modest non-specific binding; Binding to Nup100 GLFG-domain (halo intensity) (Nup100(1-307)): modest selective binding; Binding to Nup100 GLFG-domain (halo intensity) (Nup100(1-610)): modest selective binding; ImpB band density, Pellet (importin β; Blot 1): 1064.8 % control; ImpB band density, Supernatant (importin β; Blot 1): 83.0 % control; ImpB band density, Pellet (importin β; Blot 2): 423.8 % control; ImpB band density, Supernatant (importin β; Blot 2): 93.2 % control; ImpB band density, % untr control (importin β; Pellet, RNA, blot 1): 163.77%; ImpB band density, % untr control (importin β; Pellet, RNA, blot 2): 188.99%; ImpB band density, % untr control (importin β; [2]): 245.89%; ImpB band density, % untr control (importin β; [3]): 364.35%; ImpB band density, % untr control (importin β; Supernatant, RNA, blot 1): 93.15%; ImpB band density, % untr control (importin β; Supernatant, RNA, blot 2): 131.87%; ImpB band density, % untr control (importin β; [4]): 98.63%; ImpB band density, % untr control (importin β; [5]): 118.94%; RanGAP1 band density, Pellet (RanGAP1; Blot 1): 1022.6 % control; RanGAP1 band density, Supernatant (RanGAP1; Blot 1): 61.0 % control; RanGAP1 band density, Pellet (RanGAP1; Blot 2): 573.7 % control; RanGAP1 band density, Supernatant (RanGAP1; Blot 2): 68.7 % control; RCC1 band density, Pellet (RCC1; Blot 1): 44.8 % control; RCC1 band density, Supernatant (RCC1; Blot 1): 103.4 % control; RCC1 band density, Pellet (RCC1; Blot 2): 154.7 % control; RCC1 band density, Supernatant (RCC1; Blot 2): 123.6 % control; Nup62 band density, Pellet (Nup62; Blot 1): 233.3 % control; Nup62 band density, Supernatant (Nup62; Blot 1): 189.9 % control; Nup62 band density, Pellet (Nup62; Blot 2): 207.3 % control; Nup62 band density, Supernatant (Nup62; Blot 2): 93.1 % control; Matrin-3 band density, % control (Matrin-3; Pellet, Blot 1): 270.7 % control; Matrin-3 band density, % control (Matrin-3; Pellet, Blot 2): 218.9 % control; Matrin-3 band density, % control (Matrin-3; Supernatant, Blot 1): 29.8 % control; Matrin-3 band density, % control (Matrin-3; Supernatant, Blot 2): 41.9 % control; DDX3X band density, % control (DDX3X; Pellet, Blot 1): 116.9 % control; DDX3X band density, % control (DDX3X; Pellet, Blot 2): 149.1 % control; DDX3X band density, % control (DDX3X; Supernatant, Blot 1): 20.5 % control; DDX3X band density, % control (DDX3X; Supernatant, Blot 2): 11.8 % control; Rps25 band density, % untr control (Rps25; Pellet, RNA, blot 1): 295.74%; Rps25 band density, % untr control (Rps25; Pellet, RNA, blot 2): 495.87%; Rps25 band density, % untr control (Rps25; [2]): 288.08%; Rps25 band density, % untr control (Rps25; [3]): 470.22%; Rps25 band density, % untr control (Rps25; Supernatant, RNA, blot 1): 7.73%; Rps25 band density, % untr control (Rps25; Supernatant, RNA, blot 2): 9.04%; Rps25 band density, % untr control (Rps25; [4]): 1.64%; Rps25 band density, % untr control (Rps25; [5]): 0.96%
